Measured values from patent US10017459B2, “β-substituted β-amino acids and analogs as chemotherapeutic agents and uses thereof” (Quadriga Biosciences, Inc., priority 2015, dated 2018).

Key:
Type in all cases: cell-based
U266 = experiment: In vitro cytotoxicity, U266; conditions: read-out: IC50 (in vitro toxicity); U266, Multiple Myeloma; 30 min treatment, 72 hours growth
MM1.S = experiment: In vitro cytotoxicity, MM1.S; conditions: read-out: IC50 (in vitro toxicity), Multiple Myeloma, 30 min treatment, 72 hours growth
HS27A = experiment: In vitro cytotoxicity, HS27A; conditions: read-out: IC50 (in vitro toxicity), Multiple Myeloma, 30 min treatment, 72 hours growth
KMS11 = experiment: In vitro cytotoxicity, KMS11; conditions: read-out: IC50 (in vitro toxicity); KMS11, Multiple Myeloma; 30 min treatment, 72 hours growth
KMS34 = experiment: In vitro cytotoxicity, KMS34; conditions: read-out: IC50 (in vitro toxicity); KMS34, Multiple Myeloma; 30 min treatment, 72 hours growth
MV411 = experiment: In vitro cytotoxicity, MV411; conditions: read-out: IC50 (in vitro toxicity); MV411, Acute Myeloid Leukemia; 30 min treatment, 72 hours growth
Raji = experiment: In vitro cytotoxicity, Raji; conditions: read-out: IC50 (in vitro toxicity), Lymphoma, 30 min treatment, 72 hours growth
D283 = experiment: In vitro cytotoxicity, D283; conditions: read-out: IC50 (in vitro toxicity); D283, Medulloblastoma; 30 min treatment, 72 hours growth
DBRTG = experiment: In vitro cytotoxicity, DBRTG; conditions: read-out: IC50 (in vitro toxicity), Glioblastoma, 30 min treatment, 72 hours growth
AMO1 = experiment: In vitro cytotoxicity, AMO1; conditions: read-out: IC50 (in vitro toxicity); AMO1, Multiple Myeloma; 30 min treatment, 72 hours growth
794 = experiment: In vitro cytotoxicity, 794; conditions: read-out: IC50 (in vitro toxicity); 794, Atypical teratoid/Rhabdoid Tumor; 30 min treatment, 72 hours growth

SMILES	IC50 (U266) [µM]	IC50 (MM1.S) [µM]	IC50 (HS27A) [µM]	IC50 (KMS11) [µM]	IC50 (KMS34) [µM]	IC50 (MV411) [µM]	IC50 (Raji) [µM]	IC50 (D283) [µM]	IC50 (DBRTG) [µM]	IC50 (AMO1) [µM]	IC50 794 [µM]
N[C@H](CC(=O)O)Cc1ccccc1N(CCCl)CCCl	< 100	< 100	> 100	> 100	> 100	< 100	< 100	< 100	< 100	> 100	< 100
N[C@H](CC(=O)O)Cc1ccc(N(CCCl)CCCl)cc1					> 100	< 100	< 100	< 100	< 100		
